Test results from PubChem BioAssay AID720700 (The Scripps Research Institute Molecular Screening Center, 2013).
The list shows a part of the results, in another mix than the full data. The source made the active and inactive calls. Rule as the data show it: active = inhibition above about 9.5%; inactive = the rest.

The chains behind the UniProt entries cited, without tags or fusion partners.
UniProt P19174, whole entry: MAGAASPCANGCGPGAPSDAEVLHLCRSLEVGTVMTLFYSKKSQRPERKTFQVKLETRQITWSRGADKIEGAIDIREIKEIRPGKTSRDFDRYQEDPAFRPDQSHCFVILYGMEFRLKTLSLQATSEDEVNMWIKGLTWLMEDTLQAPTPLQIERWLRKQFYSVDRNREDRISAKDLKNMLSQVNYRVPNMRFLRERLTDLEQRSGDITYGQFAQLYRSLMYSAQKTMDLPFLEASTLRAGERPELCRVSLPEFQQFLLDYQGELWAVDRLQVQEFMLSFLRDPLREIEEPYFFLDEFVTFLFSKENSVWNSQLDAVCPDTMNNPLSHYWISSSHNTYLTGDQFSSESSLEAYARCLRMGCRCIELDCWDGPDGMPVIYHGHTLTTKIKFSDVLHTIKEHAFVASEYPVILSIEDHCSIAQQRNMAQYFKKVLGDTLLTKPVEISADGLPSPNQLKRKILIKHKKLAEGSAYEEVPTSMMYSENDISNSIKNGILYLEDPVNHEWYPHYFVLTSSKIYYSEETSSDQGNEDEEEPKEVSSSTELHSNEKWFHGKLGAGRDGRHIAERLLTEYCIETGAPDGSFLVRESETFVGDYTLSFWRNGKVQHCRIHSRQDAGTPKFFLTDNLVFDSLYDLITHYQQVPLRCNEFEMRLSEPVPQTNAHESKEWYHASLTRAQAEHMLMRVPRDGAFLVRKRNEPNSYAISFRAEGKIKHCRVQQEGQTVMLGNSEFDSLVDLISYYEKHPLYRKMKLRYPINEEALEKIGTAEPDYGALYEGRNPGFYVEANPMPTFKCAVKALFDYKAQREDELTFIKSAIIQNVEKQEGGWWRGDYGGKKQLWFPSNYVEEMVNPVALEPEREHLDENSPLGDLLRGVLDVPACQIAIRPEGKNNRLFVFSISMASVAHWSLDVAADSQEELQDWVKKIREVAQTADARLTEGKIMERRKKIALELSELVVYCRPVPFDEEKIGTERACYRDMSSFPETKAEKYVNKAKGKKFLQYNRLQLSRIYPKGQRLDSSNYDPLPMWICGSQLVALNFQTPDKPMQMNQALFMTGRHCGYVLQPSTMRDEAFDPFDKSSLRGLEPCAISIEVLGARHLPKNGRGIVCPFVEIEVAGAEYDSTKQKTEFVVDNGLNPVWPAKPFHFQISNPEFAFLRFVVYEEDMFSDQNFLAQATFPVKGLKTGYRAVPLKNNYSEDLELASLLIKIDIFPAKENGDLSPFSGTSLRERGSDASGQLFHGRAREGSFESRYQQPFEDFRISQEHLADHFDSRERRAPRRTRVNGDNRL

biological target: 1-phosphatidylinositol 4,5-bisphosphate phosphodiesterase gamma-1 (Homo sapiens) (UniProt P19174); assay: PLC-gamma1 enzyme inhibitors, primary screen, biochemical, fluorescence, purified enzyme (AID 720700); settings: purified PLC-gamma1, fluorogenic substrate, at 12.2 µM, active compounds read high

SMILES | inhibition
CCC(=O)N(c1ccccc1)C1(COC)CCN(CCc2cccs2)CC1 | inactive: -3.39%
CCC(=O)N(c1ccccc1)C1(COC)CCN(CCn2nnn(CC)c2=O)CC1 | inactive: 3.92%
